Membrane permeability of cyclic peptides

PAMPA measures passive passage through an artificial lipid membrane. Permeability is given as log10 of P in cm/s; higher (less negative) is more permeable.

| SMILES | PAMPA (log10 cm/s) |
|---|---|
| CC(C)C[C@@H]1C(=O)N2CCC[C@@H]2C(=O)N(Cc2ccccc2)CC(=O)N[C@@H](Cc2ccccc2)C(=O)N2CCC[C@@H]2C(=O)N[C@@H](C)C(=O)N[C@H](CC(C)C)C(=O)N1C | -6.16 |
| CC(C)C[C@@H]1C(=O)N[C@@H](Cc2ccccc2)C(=O)N[C@@H](C)C(=O)N[C@H](CC(C)C)C(=O)N(C)[C@@H](CC(C)C)C(=O)N2CCC[C@@H]2C(=O)N1C | -5.69 |
| CCCN1CC(=O)N(C)[C@@H](CC(C)C)C(=O)N(C)[C@H](CC(C)C)C(=O)N2CCC[C@@H]2C(=O)N(C)[C@H](CC(C)C)C(=O)N[C@@H](Cc2ccccc2)C(=O)N2CCC[C@H]2C1=O | -5.29 |
| CCCN1CC(=O)N[C@@H](CC(C)C)C(=O)N[C@H](CC(C)C)C(=O)N2CCC[C@H]2C(=O)N[C@H](CC(C)C)C(=O)N[C@@H](Cc2ccccc2)C(=O)N2CCC[C@@H]2C1=O | -6.21 |
| CC(C)C[C@@H]1NC(=O)[C@@H]2CCCN2C(=O)[C@H](CC(C)C)NC(=O)[C@@H](CC(C)C)N(C)C(=O)[C@@H](C)NC(=O)[C@H](Cc2ccccc2)NC1=O | -5.89 |
| CC(C)C[C@H]1NC(=O)[C@H]2CCCN2C(=O)C[C@H](Cc2ccccc2)NC(=O)[C@@H](CC(C)C)NC(=O)[C@H](C)N(C)C(=O)[C@H]2CCCN2C(=O)[C@H](Cc2ccccc2)NC1=O | -6.33 |
| CC(C)C[C@@H]1NC(=O)[C@@H](CC(C)C)N(C)C(=O)[C@H](C)NC(=O)[C@@H]2CCCN2C(=O)[C@H](Cc2ccccc2)NC(=O)[C@H](CC(C)C)N(C)C(=O)[C@H]2CCCN2C1=O | -6.30 |
| CC(C)C[C@H]1NC(=O)[C@H]2CCCN2C(=O)CN(Cc2ccccc2)C(=O)[C@H](CC(C)C)N(C)C(=O)C[C@H](Cc2ccccc2)NC(=O)[C@@H]2CCCN2C(=O)[C@H](Cc2ccccc2)NC1=O | -5.84 |
| CCCN1CC(=O)N[C@@H](CC(C)C)C(=O)N(Cc2ccccc2)CC(=O)N2CCC[C@H]2C(=O)N(C)[C@@H](CC(C)C)C(=O)N[C@@H](Cc2ccccc2)C1=O | -4.87 |
| CC(C)C[C@@H]1C(=O)N(Cc2ccccc2)CC(=O)N2CCC[C@H]2C(=O)N(C)[C@@H](CC(C)C)C(=O)N[C@@H](Cc2ccccc2)C(=O)N[C@H](C)C(=O)N1C | -5.60 |
| CC(C)C[C@@H]1NC(=O)[C@H](C)NC(=O)[C@H](Cc2ccccc2)NC(=O)[C@H](CC(C)C)N(C)C(=O)[C@@H]2CCCN2C(=O)CN(Cc2ccccc2)C1=O | -5.89 |
| CC(C)C[C@@H]1NC(=O)[C@H]2CCCN2C(=O)[C@H](CC(C)C)NC(=O)[C@@H](CC(C)C)NC(=O)C[C@H](Cc2ccccc2)NC(=O)[C@@H]2CCCN2C(=O)[C@H](Cc2ccccc2)NC1=O | -5.33 |
| CC(C)C[C@@H]1NC(=O)[C@@H](C)N(C)C(=O)[C@@H]2CCCN2C(=O)[C@H](Cc2ccccc2)NC(=O)[C@@H](CC(C)C)NC(=O)[C@@H]2CCCN2C(=O)CN(Cc2ccccc2)C1=O | -5.95 |
| CC(C)C[C@@H]1NC(=O)[C@@H]2CCCN2C(=O)C[C@H](Cc2ccccc2)NC(=O)[C@@H](CC(C)C)NC(=O)C[C@H](Cc2ccccc2)NC(=O)[C@H](Cc2ccccc2)NC1=O | -5.69 |
| CCCN1CC(=O)N[C@H](CC(C)C)C(=O)N(Cc2ccccc2)CC(=O)N2CCC[C@H]2C(=O)N(C)[C@H](CC(C)C)C(=O)N[C@@H](Cc2ccccc2)C1=O | -5.24 |
| CCCN1CC(=O)N[C@H](CC(C)C)C(=O)N(C)[C@@H](CC(C)C)C(=O)N2CCC[C@H]2C(=O)N(C)[C@H](CC(C)C)C(=O)N[C@@H](Cc2ccccc2)C(=O)N2CCC[C@@H]2C1=O | -5.20 |
| CC(C)C[C@H]1NC(=O)[C@@H](C)NC(=O)[C@@H]2CCCN2C(=O)[C@H](Cc2ccccc2)NC(=O)CN(Cc2ccccc2)C(=O)[C@@H]2CCCN2C(=O)[C@H](CC(C)C)N(C)C1=O | -5.56 |

Again, the 2 entries with the lowest PAMPA:

SMILES	PAMPA (log10 cm/s)
CC(C)C[C@H]1NC(=O)[C@H]2CCCN2C(=O)C[C@H](Cc2ccccc2)NC(=O)[C@@H](CC(C)C)NC(=O)[C@H](C)N(C)C(=O)[C@H]2CCCN2C(=O)[C@H](Cc2ccccc2)NC1=O	-6.33
CC(C)C[C@@H]1NC(=O)[C@@H](CC(C)C)N(C)C(=O)[C@H](C)NC(=O)[C@@H]2CCCN2C(=O)[C@H](Cc2ccccc2)NC(=O)[C@H](CC(C)C)N(C)C(=O)[C@H]2CCCN2C1=O	-6.30

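Lipid, pH, incubation time, direction and concentration are not recorded in the data file. The list need not hold all peptides of the study. Peptides that the database sets to -10, its floor, are left out.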

Values of Townsend et al. 2020, doi:10.26434/chemrxiv.13335941.v1, as listed in CycPeptMPDB.